The source of these data is ChEMBL document CHEMBL4312018, “Novel benzimidazole phosphonates as potential inhibitors of protein prenylation” (Bioorg Med Chem Lett, 2019).

Sequences of proteins named here, by UniProt entry; tags and fusion partners are left off. A change or cut given only in a name is not applied to a line headed by its entry.
UniProt P53611: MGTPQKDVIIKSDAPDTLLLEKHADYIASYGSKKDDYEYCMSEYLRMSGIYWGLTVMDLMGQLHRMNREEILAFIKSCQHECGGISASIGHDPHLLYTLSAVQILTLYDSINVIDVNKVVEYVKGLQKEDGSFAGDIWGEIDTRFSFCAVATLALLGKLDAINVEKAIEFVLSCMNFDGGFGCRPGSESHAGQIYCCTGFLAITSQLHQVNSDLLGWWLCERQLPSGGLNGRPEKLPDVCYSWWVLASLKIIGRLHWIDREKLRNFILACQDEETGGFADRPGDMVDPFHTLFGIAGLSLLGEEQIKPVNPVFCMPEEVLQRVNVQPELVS
UniProt Q92696: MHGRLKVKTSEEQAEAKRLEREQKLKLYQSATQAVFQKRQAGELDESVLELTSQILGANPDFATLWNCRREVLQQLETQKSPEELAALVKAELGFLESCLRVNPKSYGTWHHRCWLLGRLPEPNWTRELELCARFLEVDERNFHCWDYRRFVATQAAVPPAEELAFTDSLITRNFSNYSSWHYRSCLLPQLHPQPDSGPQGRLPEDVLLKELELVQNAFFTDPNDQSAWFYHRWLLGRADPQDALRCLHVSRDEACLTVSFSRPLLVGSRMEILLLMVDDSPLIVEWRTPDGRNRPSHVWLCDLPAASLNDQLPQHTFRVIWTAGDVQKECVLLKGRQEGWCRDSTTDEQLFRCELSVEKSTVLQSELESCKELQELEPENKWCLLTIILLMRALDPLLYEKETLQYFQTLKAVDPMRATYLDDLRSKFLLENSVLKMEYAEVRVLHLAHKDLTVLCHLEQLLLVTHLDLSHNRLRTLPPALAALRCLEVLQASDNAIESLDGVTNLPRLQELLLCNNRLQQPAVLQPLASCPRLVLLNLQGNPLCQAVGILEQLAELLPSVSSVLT

Molecules are shown by their SMILES.

The test concerns the target Geranylgeranyl transferase type-2 (Homo sapiens) (UniProt P53611+Q92696). Description: Inhibition of GGTase-2 in human RPMI8226 cells assessed as ratio of calnexin to Rab6 level at 10 uM after 48 hrs by immunoblot analysis relative to control. It is filed as cell-based.

Take `CC[C@H](C)C(=O)O[C@H]1C[C@@H](C)C=C2C=C[C@H](C)[C@H](CC[C@@H]3C[C@@H](O)CC(=O)O3)[C@H]21`: the fold change (FC) stood at 0.4.
